Laboratory results taken from publication PMC7670682 (BMC Pharmacology & Toxicology, 2020).
Entries after “also recorded” stand apart in the source; their conditions may differ. Where two headings read alike, the source gives them in different places.

Settings: rats

effects on kinetics (imatinib 30 mg/kg IG + h-GS 100 mg/kg/day 21 days, vs l-GS group): no significant effects | effects on kinetics (imatinib 30 mg/kg IG + h-GS and h-GT 100 mg/kg/day each 21 days, vs h-GS or h-GT groups separately): no significant effects | differences in pharmacokinetic parameters (imatinib 30 mg/kg IG + l-GS 50 mg/kg/day 21 days, vs imatinib only): no significant differences | differences in pharmacokinetic parameters (imatinib 30 mg/kg IG, l-GT vs h-GT group): no significant differences
SMILES: Cc1ccc(NC(=O)c2ccc(CN3CCN(C)CC3)cc2)cc1Nc1nccc(-c2cccnc2)n1 [Imatinib, reference compound]
effect on pharmacokinetics (imatinib 30 mg/kg IG + l-GS and l-GT 50 mg/kg/day each 21 days, vs imatinib only): no significant effects; also recorded: not significantly affected
